Among the data in publication PMC7611940, “A Conformation Selective Mode of Inhibiting SRC Improves Drug Efficacy and Tolerability” (Cancer Research, 2021) are remaining activity values, retold here.

The chains behind the UniProt entries cited, without tags or fusion partners. Where a name states a change or a piece, a line headed by the entry shows the natural chain unless it says otherwise.
UniProt P54753: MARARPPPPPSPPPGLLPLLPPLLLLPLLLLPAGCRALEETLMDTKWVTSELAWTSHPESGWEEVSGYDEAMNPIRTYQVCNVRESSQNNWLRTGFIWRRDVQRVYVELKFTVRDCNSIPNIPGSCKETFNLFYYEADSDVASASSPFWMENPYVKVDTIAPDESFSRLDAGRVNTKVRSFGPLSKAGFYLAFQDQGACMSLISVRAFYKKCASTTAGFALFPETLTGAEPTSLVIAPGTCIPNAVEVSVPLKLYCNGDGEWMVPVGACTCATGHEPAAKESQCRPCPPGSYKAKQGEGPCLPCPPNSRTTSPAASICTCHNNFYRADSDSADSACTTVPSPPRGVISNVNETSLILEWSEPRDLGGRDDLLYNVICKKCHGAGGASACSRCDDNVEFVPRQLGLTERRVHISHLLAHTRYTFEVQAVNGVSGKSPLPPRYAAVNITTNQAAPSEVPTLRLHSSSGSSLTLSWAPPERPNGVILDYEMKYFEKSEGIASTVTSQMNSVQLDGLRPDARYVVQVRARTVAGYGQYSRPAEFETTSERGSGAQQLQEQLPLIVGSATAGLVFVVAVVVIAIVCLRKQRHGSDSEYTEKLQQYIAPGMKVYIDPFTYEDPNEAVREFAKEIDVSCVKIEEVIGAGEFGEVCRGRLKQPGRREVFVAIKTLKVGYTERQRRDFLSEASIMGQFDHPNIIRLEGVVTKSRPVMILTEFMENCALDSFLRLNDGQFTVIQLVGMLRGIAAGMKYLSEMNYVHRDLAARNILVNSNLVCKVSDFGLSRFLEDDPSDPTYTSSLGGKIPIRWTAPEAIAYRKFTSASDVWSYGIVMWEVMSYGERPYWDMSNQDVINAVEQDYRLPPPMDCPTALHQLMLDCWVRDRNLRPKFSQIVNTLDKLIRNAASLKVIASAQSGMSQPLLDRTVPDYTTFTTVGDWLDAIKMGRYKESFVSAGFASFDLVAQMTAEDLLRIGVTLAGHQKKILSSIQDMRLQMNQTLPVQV
UniProt Q96BR1: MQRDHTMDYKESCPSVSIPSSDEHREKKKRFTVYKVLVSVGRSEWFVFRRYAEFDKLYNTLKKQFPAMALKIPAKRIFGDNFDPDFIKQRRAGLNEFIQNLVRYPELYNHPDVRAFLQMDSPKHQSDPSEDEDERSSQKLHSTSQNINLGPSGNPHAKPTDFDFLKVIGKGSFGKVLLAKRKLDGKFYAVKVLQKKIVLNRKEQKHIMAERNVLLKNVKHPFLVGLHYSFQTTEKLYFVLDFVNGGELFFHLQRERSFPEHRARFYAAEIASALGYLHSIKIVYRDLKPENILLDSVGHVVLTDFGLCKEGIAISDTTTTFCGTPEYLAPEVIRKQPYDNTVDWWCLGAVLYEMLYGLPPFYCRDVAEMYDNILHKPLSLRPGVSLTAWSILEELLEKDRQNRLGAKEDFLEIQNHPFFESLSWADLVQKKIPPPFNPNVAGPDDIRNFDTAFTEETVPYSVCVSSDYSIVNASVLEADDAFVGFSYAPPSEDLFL
UniProt Q00534, whole entry: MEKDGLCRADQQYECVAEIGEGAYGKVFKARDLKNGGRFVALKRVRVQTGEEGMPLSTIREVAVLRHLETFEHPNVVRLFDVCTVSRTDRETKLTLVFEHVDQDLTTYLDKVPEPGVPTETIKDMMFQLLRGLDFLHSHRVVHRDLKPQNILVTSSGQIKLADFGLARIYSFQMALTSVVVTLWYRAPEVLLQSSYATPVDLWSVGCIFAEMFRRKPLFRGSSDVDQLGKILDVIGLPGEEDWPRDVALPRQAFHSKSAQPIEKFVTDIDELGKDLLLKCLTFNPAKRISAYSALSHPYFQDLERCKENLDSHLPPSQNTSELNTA
UniProt P51451: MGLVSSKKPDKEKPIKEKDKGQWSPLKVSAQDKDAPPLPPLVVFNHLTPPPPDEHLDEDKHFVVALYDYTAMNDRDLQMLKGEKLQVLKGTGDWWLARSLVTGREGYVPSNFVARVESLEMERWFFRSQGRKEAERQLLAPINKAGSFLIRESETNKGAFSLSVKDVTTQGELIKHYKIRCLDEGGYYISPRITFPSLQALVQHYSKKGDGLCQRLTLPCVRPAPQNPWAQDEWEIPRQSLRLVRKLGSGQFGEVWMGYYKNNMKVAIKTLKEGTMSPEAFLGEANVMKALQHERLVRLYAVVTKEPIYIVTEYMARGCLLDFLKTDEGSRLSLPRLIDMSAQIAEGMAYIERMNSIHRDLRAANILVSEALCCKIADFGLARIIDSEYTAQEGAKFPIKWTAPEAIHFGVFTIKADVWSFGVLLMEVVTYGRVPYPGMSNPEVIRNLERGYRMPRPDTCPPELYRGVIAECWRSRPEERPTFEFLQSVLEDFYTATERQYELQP
UniProt Q09013: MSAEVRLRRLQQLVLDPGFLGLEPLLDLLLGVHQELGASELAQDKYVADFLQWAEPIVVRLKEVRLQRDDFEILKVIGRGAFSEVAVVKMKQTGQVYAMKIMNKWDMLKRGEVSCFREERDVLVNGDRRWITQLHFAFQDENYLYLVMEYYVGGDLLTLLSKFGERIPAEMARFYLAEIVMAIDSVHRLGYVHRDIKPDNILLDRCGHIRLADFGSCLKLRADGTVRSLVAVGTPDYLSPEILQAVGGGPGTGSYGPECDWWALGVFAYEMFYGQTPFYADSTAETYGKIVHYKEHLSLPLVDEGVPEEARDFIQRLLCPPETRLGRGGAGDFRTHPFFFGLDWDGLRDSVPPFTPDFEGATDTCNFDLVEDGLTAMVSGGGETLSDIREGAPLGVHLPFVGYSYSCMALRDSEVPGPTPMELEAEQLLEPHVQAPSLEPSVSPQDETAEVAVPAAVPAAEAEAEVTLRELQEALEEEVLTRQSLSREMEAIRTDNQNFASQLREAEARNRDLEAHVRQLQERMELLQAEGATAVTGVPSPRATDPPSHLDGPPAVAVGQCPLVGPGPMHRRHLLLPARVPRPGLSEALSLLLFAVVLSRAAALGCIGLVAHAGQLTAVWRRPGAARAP
UniProt P23458: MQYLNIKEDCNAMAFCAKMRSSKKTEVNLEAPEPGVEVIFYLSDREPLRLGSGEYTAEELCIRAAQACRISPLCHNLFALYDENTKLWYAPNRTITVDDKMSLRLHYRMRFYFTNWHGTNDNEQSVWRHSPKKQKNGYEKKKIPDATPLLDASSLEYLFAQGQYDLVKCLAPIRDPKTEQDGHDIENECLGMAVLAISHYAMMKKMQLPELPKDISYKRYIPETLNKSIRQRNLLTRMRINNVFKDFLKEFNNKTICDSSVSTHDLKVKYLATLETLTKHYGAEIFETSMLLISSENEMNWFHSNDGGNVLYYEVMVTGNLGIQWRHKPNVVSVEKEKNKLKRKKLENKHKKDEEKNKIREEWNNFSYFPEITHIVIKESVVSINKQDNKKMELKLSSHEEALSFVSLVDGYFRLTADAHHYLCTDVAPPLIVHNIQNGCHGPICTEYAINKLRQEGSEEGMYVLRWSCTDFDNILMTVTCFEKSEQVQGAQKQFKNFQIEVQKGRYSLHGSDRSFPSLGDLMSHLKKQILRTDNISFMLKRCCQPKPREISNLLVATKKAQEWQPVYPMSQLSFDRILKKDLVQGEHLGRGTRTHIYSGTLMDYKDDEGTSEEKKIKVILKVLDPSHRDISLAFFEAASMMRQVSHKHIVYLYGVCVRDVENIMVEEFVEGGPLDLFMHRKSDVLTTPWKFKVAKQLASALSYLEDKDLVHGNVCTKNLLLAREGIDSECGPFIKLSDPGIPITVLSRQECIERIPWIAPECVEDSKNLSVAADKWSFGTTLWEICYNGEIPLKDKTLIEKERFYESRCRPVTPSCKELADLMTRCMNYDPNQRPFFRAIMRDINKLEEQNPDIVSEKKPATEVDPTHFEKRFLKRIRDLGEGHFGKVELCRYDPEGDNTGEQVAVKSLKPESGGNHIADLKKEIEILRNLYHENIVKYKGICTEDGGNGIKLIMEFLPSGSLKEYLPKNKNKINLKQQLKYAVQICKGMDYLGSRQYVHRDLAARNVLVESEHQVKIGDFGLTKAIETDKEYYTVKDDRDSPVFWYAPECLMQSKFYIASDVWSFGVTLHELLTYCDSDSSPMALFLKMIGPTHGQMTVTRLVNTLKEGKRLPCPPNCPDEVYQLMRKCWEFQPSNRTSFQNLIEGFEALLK
UniProt P30291: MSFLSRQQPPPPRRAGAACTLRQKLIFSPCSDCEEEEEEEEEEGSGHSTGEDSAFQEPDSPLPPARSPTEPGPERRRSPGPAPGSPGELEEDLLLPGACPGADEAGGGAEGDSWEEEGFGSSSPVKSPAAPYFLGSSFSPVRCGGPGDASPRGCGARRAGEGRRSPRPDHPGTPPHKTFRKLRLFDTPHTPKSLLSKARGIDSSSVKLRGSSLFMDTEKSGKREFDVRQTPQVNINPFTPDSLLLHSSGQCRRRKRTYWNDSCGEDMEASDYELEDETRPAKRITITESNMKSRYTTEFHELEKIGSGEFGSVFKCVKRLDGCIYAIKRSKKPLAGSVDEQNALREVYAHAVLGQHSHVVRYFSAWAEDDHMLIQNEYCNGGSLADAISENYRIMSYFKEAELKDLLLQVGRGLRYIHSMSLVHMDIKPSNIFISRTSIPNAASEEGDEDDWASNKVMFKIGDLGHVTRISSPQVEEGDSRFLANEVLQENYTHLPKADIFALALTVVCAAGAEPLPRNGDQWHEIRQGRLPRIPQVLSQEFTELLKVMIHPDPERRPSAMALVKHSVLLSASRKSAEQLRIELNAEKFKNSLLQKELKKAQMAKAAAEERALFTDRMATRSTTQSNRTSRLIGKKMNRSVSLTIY
UniProt P42684, whole entry: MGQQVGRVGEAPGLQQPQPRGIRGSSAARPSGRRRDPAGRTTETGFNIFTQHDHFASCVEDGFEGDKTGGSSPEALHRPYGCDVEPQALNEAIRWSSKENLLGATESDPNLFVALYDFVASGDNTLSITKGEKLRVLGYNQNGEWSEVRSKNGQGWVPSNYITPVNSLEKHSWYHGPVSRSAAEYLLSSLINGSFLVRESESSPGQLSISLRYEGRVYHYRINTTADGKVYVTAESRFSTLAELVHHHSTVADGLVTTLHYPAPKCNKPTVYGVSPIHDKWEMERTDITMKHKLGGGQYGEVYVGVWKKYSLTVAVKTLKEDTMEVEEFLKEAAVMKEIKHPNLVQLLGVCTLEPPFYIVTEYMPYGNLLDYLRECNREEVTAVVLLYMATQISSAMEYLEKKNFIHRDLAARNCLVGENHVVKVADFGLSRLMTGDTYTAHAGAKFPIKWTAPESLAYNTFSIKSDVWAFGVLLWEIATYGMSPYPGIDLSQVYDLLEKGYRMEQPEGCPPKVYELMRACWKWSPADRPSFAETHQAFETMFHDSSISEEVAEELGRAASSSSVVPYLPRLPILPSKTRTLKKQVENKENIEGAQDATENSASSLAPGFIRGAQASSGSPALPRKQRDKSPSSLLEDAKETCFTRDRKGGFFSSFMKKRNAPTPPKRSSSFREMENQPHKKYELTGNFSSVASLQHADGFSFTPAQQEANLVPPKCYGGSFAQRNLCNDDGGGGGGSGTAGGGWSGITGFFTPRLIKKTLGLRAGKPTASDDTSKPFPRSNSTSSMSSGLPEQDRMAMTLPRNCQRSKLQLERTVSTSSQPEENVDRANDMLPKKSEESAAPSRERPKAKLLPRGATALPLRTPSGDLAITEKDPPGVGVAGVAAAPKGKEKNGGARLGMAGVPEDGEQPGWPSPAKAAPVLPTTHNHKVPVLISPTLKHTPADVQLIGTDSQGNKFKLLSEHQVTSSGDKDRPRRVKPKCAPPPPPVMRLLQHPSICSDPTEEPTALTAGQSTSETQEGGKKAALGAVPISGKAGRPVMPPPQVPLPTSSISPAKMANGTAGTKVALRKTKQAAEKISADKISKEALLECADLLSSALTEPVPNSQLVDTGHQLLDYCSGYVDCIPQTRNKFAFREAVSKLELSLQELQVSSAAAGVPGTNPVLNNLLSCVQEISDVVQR
UniProt Q9BXA7: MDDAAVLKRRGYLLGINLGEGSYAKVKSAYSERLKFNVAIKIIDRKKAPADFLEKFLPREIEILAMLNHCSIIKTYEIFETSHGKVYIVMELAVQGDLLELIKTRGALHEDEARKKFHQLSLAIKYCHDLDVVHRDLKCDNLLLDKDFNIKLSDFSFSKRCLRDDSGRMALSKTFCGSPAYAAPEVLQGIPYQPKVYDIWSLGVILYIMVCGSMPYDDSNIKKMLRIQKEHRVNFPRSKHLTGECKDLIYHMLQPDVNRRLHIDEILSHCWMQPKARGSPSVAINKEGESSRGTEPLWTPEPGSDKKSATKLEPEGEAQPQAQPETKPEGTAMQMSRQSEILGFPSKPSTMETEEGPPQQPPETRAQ

Targets include EPHB3 (Homo sapiens, UniProt P54753); SGK3 (Homo sapiens, UniProt Q96BR1); TESK1 (Homo sapiens, UniProt Q15569); INSRR (Homo sapiens, UniProt P14616); CDK6/cyclin D3 (Homo sapiens, UniProt Q00534); SRC (Homo sapiens, UniProt P12931); PIM3 (Homo sapiens, UniProt Q86V86); BLK (Homo sapiens, UniProt P51451); DMPK (Homo sapiens, UniProt Q09013); CDK3/cyclin E (Homo sapiens, UniProt Q00526); JAK1 (Homo sapiens, UniProt P23458); HCK (Homo sapiens, UniProt P08631); PRKG2 (Homo sapiens, UniProt Q13237); NLK (Homo sapiens, UniProt Q9UBE8); WEE1 (Homo sapiens, UniProt P30291); PHKg2 (Homo sapiens, UniProt P15735); PAK6 (Homo sapiens, UniProt Q9NQU5).

Holding throughout (test): biochemical
What all share (conditions): read-out: % remaining activity

In the next assay the target is T1, ARG (Homo sapiens, UniProt P42684).
T1 construct: gene ABL2

In another assay the target is T2, PKCa (Homo sapiens, UniProt P17252).
T2 construct: gene PRKCA

Another assay addresses T3, STK22D (Homo sapiens, UniProt Q9BXA7).
T3 construct: gene TSSK1B

Another assay concerns the target T4, PKCtheta (Homo sapiens, UniProt Q04759).
T4 construct: gene PRKCQ

As to `COc1cc(-c2nn(CCN3CCC(N(C)C)CC3)c3ncnc(N)c23)ccc1NC(=O)OC(C)(C)C` [eCF506], the remaining activity at 1 µM on EPHB3 turned out to be 93.1%; at SGK3 it was 83.4%; on TESK1, 94.3%; on INSRR it was 101%; at CDK6/cyclin D3, 92.6%; on SRC, 0.1%. The remaining activity at 1 µM was 90.6% at PIM3; 4.8% on BLK; 28.7% at ARG; 105% on DMPK; 97.2% at CDK3/cyclin E; 102% on JAK1. Also, the remaining activity at 1 µM on HCK came to 0.8%; on PRKG2 it was 93.7%; at PKCa, 99.9%; on NLK, 93.1%; at WEE1, 96.2%; at STK22D, 102%. The values for the remaining activity at 1 µM at PHKg2, at PKCtheta and at PAK6 were 95.3%, 92.1% and 102%, respectively.
